Earlier results on one compound are cited in PMC10648141, “Screening of Oral Potential Angiotensin-Converting Enzyme Inhibitory Peptides from Zizyphus jujuba Proteins Based on Gastrointestinal Digestion In Vivo” (International Journal of Molecular Sciences, 2023).

The chains behind the UniProt entries cited, without tags or fusion partners. Residues count along the entry.
UniProt P12821, 30-1306 limits assumed: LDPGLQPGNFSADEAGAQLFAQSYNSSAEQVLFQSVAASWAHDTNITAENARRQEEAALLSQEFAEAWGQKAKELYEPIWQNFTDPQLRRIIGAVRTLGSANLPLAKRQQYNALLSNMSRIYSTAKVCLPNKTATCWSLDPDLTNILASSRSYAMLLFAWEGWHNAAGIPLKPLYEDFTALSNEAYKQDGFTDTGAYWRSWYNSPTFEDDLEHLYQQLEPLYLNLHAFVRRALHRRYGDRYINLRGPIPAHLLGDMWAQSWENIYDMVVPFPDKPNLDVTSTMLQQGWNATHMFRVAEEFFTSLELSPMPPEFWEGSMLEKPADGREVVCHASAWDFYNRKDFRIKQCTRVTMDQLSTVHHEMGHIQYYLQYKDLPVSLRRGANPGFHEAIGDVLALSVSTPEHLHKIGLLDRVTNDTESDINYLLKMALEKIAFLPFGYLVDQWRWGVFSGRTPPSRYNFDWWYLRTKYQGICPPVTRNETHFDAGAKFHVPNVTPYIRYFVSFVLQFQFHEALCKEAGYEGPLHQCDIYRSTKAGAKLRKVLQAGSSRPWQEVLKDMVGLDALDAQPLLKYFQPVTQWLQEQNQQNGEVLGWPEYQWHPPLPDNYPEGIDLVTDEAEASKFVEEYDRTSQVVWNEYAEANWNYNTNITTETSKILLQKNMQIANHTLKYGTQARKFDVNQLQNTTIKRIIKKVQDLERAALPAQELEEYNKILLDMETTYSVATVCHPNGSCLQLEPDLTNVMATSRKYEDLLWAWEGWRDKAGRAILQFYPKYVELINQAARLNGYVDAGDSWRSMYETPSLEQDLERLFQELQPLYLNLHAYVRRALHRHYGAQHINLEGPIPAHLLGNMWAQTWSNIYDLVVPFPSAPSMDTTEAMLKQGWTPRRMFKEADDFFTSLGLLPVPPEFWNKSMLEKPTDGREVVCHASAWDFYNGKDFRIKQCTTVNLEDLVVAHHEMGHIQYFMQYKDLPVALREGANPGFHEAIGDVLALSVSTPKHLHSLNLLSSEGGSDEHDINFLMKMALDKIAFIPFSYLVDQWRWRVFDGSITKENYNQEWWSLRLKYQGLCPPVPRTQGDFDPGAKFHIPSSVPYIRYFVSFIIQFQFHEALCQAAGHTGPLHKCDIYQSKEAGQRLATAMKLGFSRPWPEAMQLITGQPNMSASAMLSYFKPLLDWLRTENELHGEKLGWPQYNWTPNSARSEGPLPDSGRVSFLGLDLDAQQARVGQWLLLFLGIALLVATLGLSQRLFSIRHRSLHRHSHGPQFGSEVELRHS

The data set addresses ACE (Homo sapiens, UniProt P12821). The following applies: ACE-inhibitory activity used as 3D-QSAR input (training set 34, test set 12 marked *); ref our group and the DFBP database; cited from earlier work.

For `N[C@@H](CS)C(=O)N[C@@H](CS)C(=O)O`, the PIC50 was -0.99.
